Data as given in ChEMBL document CHEMBL3763142, “Discovery of potent anti-tuberculosis agents targeting leucyl-tRNA synthetase” (Bioorg Med Chem, 2016).
Active and inactive are the calls of the source. The rule behind the calls is not given here.

Test system: Mycobacterium tuberculosis
Conditions: H37Rv

Compound	MIC
O=[N+]([O-])c1ccc(-c2csc(N/N=C\c3ccc(O)c([N+](=O)[O-])c3)n2)cc1	inactive
O=[N+]([O-])c1cc(/C=N\Nc2nccs2)ccc1O	inactive
